AlphaSeq binding of Ab-14 heavy chain variants to a spike HR2 peptide

The target is the same throughout: PDVDLGDISGINAS, from the HR2 region of SARS-CoV-2 spike.

The variants keep the light chain, the linker and the frameworks of Ab-14 (scFv order VH, a (GGGGS)3 linker, VL).
VH: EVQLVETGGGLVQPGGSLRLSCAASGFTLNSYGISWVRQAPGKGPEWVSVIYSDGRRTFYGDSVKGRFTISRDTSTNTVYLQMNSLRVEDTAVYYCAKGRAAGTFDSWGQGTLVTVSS
VL: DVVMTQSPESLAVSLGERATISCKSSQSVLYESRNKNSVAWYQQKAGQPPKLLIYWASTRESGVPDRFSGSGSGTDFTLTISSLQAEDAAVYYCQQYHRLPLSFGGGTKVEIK

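Phage display of a naive human antibody library on the peptide gave the parent. The variants were designed computationally from a first round of random CDR variants and then made and measured. Several design methods are mixed in this list. In AlphaSeq, yeast of one mating type display the scFv and yeast of the other type display the target. Binding brings cells together so that they mate, and sequencing counts the barcode pairs among the diploids. Read counts were normalised to the haploid input and turned into Kd by a linear fit to BCL2-family pairs of known affinity, for each replicate. The assay was run in six technical replicates.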

Variants are written as CDR1, CDR2 and CDR3 of the heavy chain (limits as in the source). Parent: GFTLNSYGIS, VIYSDGRRTFYGDSVK, GRAAGTFDS.
Values are apparent Kd, the geometric mean of the replicates that gave a signal; lower means stronger binding.
A pair that was not seen in any replicate is written "not detected"; this usually means weak binding, but a binder can also be missed.
In the paper, a design with two or fewer of six values counts as a poor binder.

CDR-H1,CDR-H2,CDR-H3,Kd (apparent),replicates with signal,empty controls
GFDIEEYGIS,VIYADGMRTVYSDSFK,SGRTFNMDL,not detected,0 of 6,0 of 18
GFDLNEYGIS,VIYADGKRTYYADSVK,GENAGTFDI,380 pM,6 of 6,1 of 18
GFSLNSYGIS,VIYSDGRRTFYGDSVK,GKTAGTFDR,2.2 nM,6 of 6,0 of 18
GFDLDEYGIS,VIYADGRRTFYADSVK,GENAGTFDI,460 pM,6 of 6,0 of 18
GFTLNQMGIS,VIYADGRRTQYIDSVK,GRAAGTFDS,2.2 nM,6 of 6,0 of 18
GFDLNEYGIS,VIYADGMRTAYLDSVK,GQLAGTFDT,870 pM,6 of 6,2 of 18
GFELNEYGIS,VIYSDGRRTFYGDSVK,GRAAVTFDQ,50 nM,1 of 6,1 of 18
GITLNSYGIS,VIYSDGRRTFYKDSVK,GRAAGTPDS,not detected,0 of 6,1 of 18
GFDLNEYGIS,VIYADGRRTFYADSVK,GQIAGTFNV,360 pM,6 of 6,0 of 18
GFDLNSYGIS,VIYSDGRRTFYGDSVK,GKAAGTFDC,not detected,0 of 6,0 of 18
GFKLNSYGIS,VIYSDGRRTFYGDNVK,GRAAGTFDK,not detected,0 of 6,1 of 18
GFTLKSYGIS,VIYADGRRTFYGDSVK,GRAAGTFDL,4.4 nM,6 of 6,0 of 18
GFELNSYGIS,VIYSDGRRTFYADMVK,GEAAGTFDS,52 nM,6 of 6,0 of 18
GFDLNEYGIS,VIYSDGRRTFYTDSVK,GRSAGTFDS,9.5 nM,6 of 6,1 of 18
GFVLNSYGIS,VIYSDGRRTFYGDSVK,GRAAGTNDS,not detected,0 of 6,0 of 18
GFTLNSYGIS,VIYSDGRRTFYGDSVK,GYAAGTFVS,850 nM,1 of 6,1 of 18
GKDLEEYGIS,VIYADGRRSAYTDNVK,GHAGNIFMS,160 nM,1 of 6,0 of 18
GFDLNEYGIS,VIYADGRRTAYSDKVK,GNVGGTFDI,530 pM,6 of 6,0 of 18
GFDLNEYGIS,VIYADGQRTAYANSVK,GEVAGTFDL,820 pM,6 of 6,0 of 18
GFDLNEYGIS,VIYADGVRSFYADNAK,GNVGIFMEV,not detected,0 of 6,0 of 18
GFTLNSYGIS,VIYSDGRRTFYGDSVK,GRQAGTFDT,79 nM,6 of 6,0 of 18
GFKLNSYGIS,VIYSDGRRTFYGDSVK,GRAAGTFIS,not detected,0 of 6,0 of 18
GFSLNWYGIS,VIYSDGRRTFYIDSVK,GREAGTFDS,not detected,0 of 6,0 of 18
GFTLNSYGIS,VIYSDGRRTFYGDSVK,GKQAGTFDN,1.9 nM,2 of 6,0 of 18
GFDLNEYGIS,VIYADGVRKAYADDVK,GNVAGTFDQ,370 pM,6 of 6,0 of 18
GFSLNSYGIS,VIYSDGRRTFYVDDVK,GNAAGTFDA,1.0 nM,6 of 6,0 of 18
KFSLNSYGIS,VIYADGRRTFYGDSVK,GRAAGTFDS,10 nM,6 of 6,0 of 18

Second part, the sequence after the result:

Kd (apparent),replicates with signal,empty controls,CDR-H1,CDR-H2,CDR-H3
not detected,0 of 6,0 of 18,GFTLNSYGIS,VIYSDGRRTFYYDSVK,GRAALTFDS
1.5 nM,6 of 6,0 of 18,GFDLNEYGIS,VIYADGRRKAYADSVK,GNNAGTFDV
360 pM,6 of 6,1 of 18,GFDLDEYGIS,VIYADGMRKAYADSVK,GNEAGTFDV
25 nM,6 of 6,0 of 18,GFTLNEYGIS,VIYSDGYRTFYGDSVK,GRAAGTFDQ
not detected,0 of 6,0 of 18,GFQLNSYGIS,VIYSDGRRTFYIDHVK,GKAAGTFDS
1.5 nM,6 of 6,0 of 18,GFSLNTYGIS,VIYSDGRRTFYADSVK,GRVAGTFDS
510 pM,6 of 6,0 of 18,GFDLNEYGIS,VIYADGKRTAYADKVK,GNVAGTFDL
4.3 nM,6 of 6,1 of 18,GFELENYGIS,VIYSDGRRTFYGDSVK,GRAAGTFDS
300 pM,6 of 6,0 of 18,GFDLNEYGIS,VIYADGKRTFYSDSVK,GTVAGTFDS
7.3 nM,6 of 6,0 of 18,GFTLNEYGIS,VIYSDGVRTFYSDSVK,GRAGGTFDS
not detected,0 of 6,0 of 18,GFTLNDYGIS,VIYSDGRRTFYGDSVK,GKAAGTFDK
370 pM,6 of 6,0 of 18,GFDLNEYGIS,VIYADGMRSYYADSVK,GENAGTFDV
not detected,0 of 6,0 of 18,GFDLNSYGIS,VIYSDGRRTFYGDSVK,GRAAAFFDS
660 pM,6 of 6,0 of 18,GFDLNEYGIS,VIYADGRRTAYADDVK,GENAGTFDQ
not detected,0 of 6,0 of 18,GFDIEEYGIS,VIYADGKRAAYADAVK,GENMDIMTD
not detected,0 of 6,1 of 18,GFTPNSYGIS,VIYSDGRRTFYGDSVK,GKHAGTFDS
340 pM,6 of 6,0 of 18,GFDLDEYGIS,VIYADGKRTAYSDSVK,GNQAGTFDV
not detected,0 of 6,0 of 18,GFTLNGYGIS,VIYSDGRRTFYGDSVK,GRAAGTFNS
6.9 nM,6 of 6,0 of 18,GFNLNSYGIS,VIYSDGRRTFYHDSVK,GQAAGTFDS
not detected,0 of 6,0 of 18,GFDLNSYGIS,VIYSDGRRTFYGDSVK,GRAAGLFWS
400 pM,6 of 6,0 of 18,GFDLNEYGIS,VIYADGKRTAYSDSVK,GNTAGTFDV
2.4 nM,6 of 6,0 of 18,GFDLNDYGIS,VIYADGMRTFYADSVK,GEYAGTFDI
1.1 nM,4 of 6,1 of 18,GFGLNSYGIS,VIYSDGRRTFYSDSVK,GKEAGTFDS
39 nM,1 of 6,0 of 18,GFILNEYGIS,VIYSDGRRTVYTDSVK,GRFAGTFDS
570 pM,6 of 6,0 of 18,GFDLNEYGIS,VIYADGSRSFYADSVK,GQLAGTFDM
33 nM,6 of 6,0 of 18,MFSLNSYGIS,VIYSDGRRTFYKDSVK,GNEAGTFDS
7.1 nM,6 of 6,0 of 18,GFDLDEYGIS,VIYADGMRTAYADSVK,GNAAGTFDV

The opening 7 entries, copied out:

CDR-H1	CDR-H2	CDR-H3	Kd (apparent)	replicates with signal	empty controls
GFDIEEYGIS	VIYADGMRTVYSDSFK	SGRTFNMDL	not detected	0 of 6	0 of 18
GFDLNEYGIS	VIYADGKRTYYADSVK	GENAGTFDI	380 pM	6 of 6	1 of 18
GFSLNSYGIS	VIYSDGRRTFYGDSVK	GKTAGTFDR	2.2 nM	6 of 6	0 of 18
GFDLDEYGIS	VIYADGRRTFYADSVK	GENAGTFDI	460 pM	6 of 6	0 of 18
GFTLNQMGIS	VIYADGRRTQYIDSVK	GRAAGTFDS	2.2 nM	6 of 6	0 of 18
GFDLNEYGIS	VIYADGMRTAYLDSVK	GQLAGTFDT	870 pM	6 of 6	2 of 18
GFELNEYGIS	VIYSDGRRTFYGDSVK	GRAAVTFDQ	50 nM	1 of 6	1 of 18

A sequence measured in both rounds can read differently, since the two assays cover different ranges.
Three control strains display no target. For all heavy chain designs, 1% of the pairings with them gave a signal, with a median of 120 nM and one signal in twenty below 7.0 nM, so weak values seen in few replicates may be background. Also given: how often the same scFv was detected with the empty control strains.

The measurements come from Li et al. 2023 (doi:10.1038/s41467-023-39022-2) through the FLAb antibody collection.